Values quoted from earlier work in patent US11478526B2, “Methods of reducing neuroinflammation or toxicity induced by amyloid beta (abeta) using glucocorticoid induced leucine zipper (GILZ) analog peptides” (INDIANA UNIVERSITY RESEARCH AND TECHNOLOGY CORPORATION, priority 2016, dated 2022).

Sequences of proteins named here, by UniProt entry; tags and fusion partners are left off.
UniProt Q04206, whole entry: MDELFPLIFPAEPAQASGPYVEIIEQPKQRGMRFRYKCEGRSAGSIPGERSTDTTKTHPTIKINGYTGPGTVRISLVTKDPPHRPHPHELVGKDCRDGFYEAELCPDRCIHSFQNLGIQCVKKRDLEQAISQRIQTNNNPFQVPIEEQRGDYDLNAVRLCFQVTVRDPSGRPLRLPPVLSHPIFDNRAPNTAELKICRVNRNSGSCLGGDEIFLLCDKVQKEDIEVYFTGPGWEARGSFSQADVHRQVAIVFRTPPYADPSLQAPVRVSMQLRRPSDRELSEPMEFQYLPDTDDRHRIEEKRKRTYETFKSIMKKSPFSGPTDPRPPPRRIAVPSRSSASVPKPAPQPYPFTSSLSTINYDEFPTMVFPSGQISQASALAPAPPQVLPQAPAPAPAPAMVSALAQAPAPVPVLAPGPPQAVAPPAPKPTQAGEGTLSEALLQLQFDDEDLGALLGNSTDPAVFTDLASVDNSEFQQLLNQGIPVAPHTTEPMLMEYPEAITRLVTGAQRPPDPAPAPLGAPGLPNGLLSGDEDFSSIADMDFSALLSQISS

Molecular target: T1, Recombinant human p65 protein (r-p65) (Homo sapiens, UniProt Q04206)
T1 construct: purchased Ori-Gene Technologies Inc., Rockville, Md; TP320780
Details: previously shown; read-out: strength of interaction with r-p65; cited from earlier work

B1: rGILZ: purified recombinant human GILZ protein (r-GILZ) with GST tag (protein)
chain: MNTEMYQTPMEVAVYQLHNFSISFFSSLLGGDVVSVKLDNSASGASVVAIDNKIEQAMDLVKNHLMYAVREEVEILKEQIRELVEKNSQLERENTLLKTLASPEQLEKFQSCLSPEEPAPESPQVPEAPGGSAV
modifications: left off: a dimerising Fc or GST
notes: purified recombinant human GILZ protein (r-GILZ) with GST tag
Kd: 591 nM
